Test results as given in US11242354B2, “4-sulfur substituted podophyllotoxin derivative and preparation method therefor and use thereof” (priority 2017, dated 2022).

Assays:
HepG2 = test: MTT test for inhibition of tumor cells, HepG2; format: cell-based; details: read-out: IC50 HepG2, 48 h
Method: HepG2, HeLa cell lines and human normal liver cells HL-7702 in a logarithmic growth period were centrifuged at 1000 rpm for 5 min, and the supernatant was discarded, the cells were suspended with a suitable amount of culture medium to adjust the cell concentration to 3.5×10^4/well, the cells were seeded in 96-well plates, and the following experimental groups were set:
One negative control group; 28 test groups of the same concentration (i. e: Compound 1-28 groups); three control groups: podophyllotoxin group, 4 ? demethylepipodophyllotoxin group and etoposide group. […]

HeLa = test: MTT test for inhibition of tumor cells, HeLa; format: cell-based; details: read-out: IC50 HeLa, 48 h
[1] = test system: human normal hepatocytes HL-7702; test: MTT test on human normal hepatocytes HL-7702; details: read-out: IC50 HL-7702; human normal hepatocytes HL-7702, MTT, 48 h

4-Demethylepipodophyllotoxin
IC50 (HepG2): 49.3 µM | IC50 (HeLa): 63.1 µM | IC50 [1]: 52.9 µM
